Rce1 inh – yeast Rce1p protease inhibitors, primary screen, biochemical, fluorescence, cell-free homogeneous; CAAX prenyl protease 2 (Saccharomyces cerevisiae (strain ATCC 204508 / S288c)), Q03530; yeast membranes, quenched prenylated peptide cleavage fluorescence; 0.27% of 290,000 active; calls only;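 active means fall in fluorescence gain of 50% or more versus controls, with final raw signal at or below 3038400; inconclusive means same 50% fall but final raw signal above 3038400; inactive means fall in fluorescence gain under 50%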;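 further: plate controls were neutral control wells for no effect and wells lacking membranes for full effect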
UUG fidelity – alters start codon recognition fidelity in yeast; S. cerevisiae UUG-firefly luciferase reporter, luminescence/redox ratio; activity score, % at 18.7 µM; hit rate 0.13% among 350,000;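 active = replicate mean at a twofold rise or more, about +100% in these data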;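 also: firefly luciferase made from a UUG start codon reports start codon fidelity; reporter light over untreated wells divided by growth signal over untreated wells; some hits fall short of that in this replicate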
Arrestin-AP2 inh – inhibitors of beta-arrestin/AP2 binding, primary screen, biochemical, GPCR trafficking, flow cytometry; FITC-arrestin peptide / GST-AP2 beads; AP2 beta2 appendage carries R879A mutation; beta-arrestin 1 C-terminal peptide binding to AP2 beta2-adaptin appendage (human); 0.31% of 340,000 active; inhibition, % at 10 µM;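 active means inhibition above a set limit, near 3 SD of compounds lacking own fluorescence, cut at about 54% in these data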;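 further: plate controls were DMSO wells for no effect and 5 µM unlabelled arrestin peptide for full effect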
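System: GST-AP2 R879A glutathione beads | Also added: FITC-arrestin peptide, 50 nM | Times: 12 min plus 1 h, RT | Signal: Bead flow cytometry, FITC channel | Buffer or medium: PBS with 0.05% Tween 20 and 0.1% BSA | Read-out basis: Percent drop in bead-associated FITC signal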
Tb MetRS inh – T. brucei MetRS inhibitors, primary screen, biochemical, luminescence; methionyl-tRNA synthetase (Trypanosoma brucei brucei); purified T. brucei MetRS, ATP depletion, Kinase-Glo luminescence; inhibition, % at 11.9 µM; 0.4% of 360,000 active; AID 624268, 2012;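 active means inhibition above a per-plate cutoff of the control wells' mean inhibition plus 3 SD, cut at about 5.5% in these data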;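 further: 0% = DMSO wells median and 100% = median of wells with control inhibitor compound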
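Assay system: T. brucei methionyl-tRNA synthetase, purified | Medium: HEPES buffer with MgCl2, KCl, DTT, spermine, BSA, pyrophosphatase | Compound: 11.9 µM single point | Incubation: 15 min enzyme-compound preincubation, 2 h reaction, 10 min detection, 25 °C | Measured by: Kinase-Glo luciferase luminescence reporting remaining unconsumed ATP | Measure: % inhibition normalized to control-well medians | Replication: Singlicate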
DSG3 Ab inh – inhibitors of pemphigus antibody binding to DSG3, primary screen, biochemical, bead-based, flow cytometry, scFv-GFP | Desmoglein-3 (Homo sapiens), P32926 | DSG3-coupled beads, scFv-anti-DSG3-GFP binding; stronger effect = lower value | binding (percent of control), % at 10 µM | 0.48% of 310,000 active | AID 588358, 2011;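 active means binding more than 3 SD below its plate's average and above zero; inconclusive means below that plate limit but binding exactly zero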;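 further: hits lower antibody fragment binding to DSG3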
Arr AP2 CP1 – inhibitors of arrestin peptide binding to AP2, confirmation, biochemical, cherry pick 1, flow cytometry beads; shares compounds with Arrestin-AP2 inh; GST-AP2 beads, FITC arrestin peptide binding; GST-fused beta2-adaptin appendage, R879A mutant; 2% of 1,300 active; inhibition, % at 10 µM;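 active means inhibition above a set limit, roughly 3 SD of non-fluorescent compound noise, cut at about 38% in these data; inactive means inhibition at or below that limit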;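 further: loss of bead fluorescence from 50 nM FITC arrestin peptide bound to appendage; 0% = negative control wells and 100% = excess unlabelled arrestin peptide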
GST-FITC bead – GST-fluorescein capture on glutathione beads, confirmation, artefact control for arrestin-AP2 inhibitor project, biochemical, cherry pick 1, flow cytometry. shares compounds with Arrestin-AP2 inh. GST-fluorescein binding to GSH beads, fluorescence, counter-screen. inhibition, % at 10 µM. 2% of 1,300 active. AID 588338, 2011;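 active means inhibition above 50%, about 3 SD of the inhibition seen with non-fluorescent compounds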;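 further: fluorescein maleimide labelled GST captured on 4 micron glutathione beads; higher means more loss of bead fluorescence from quenching or blocked binding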
An asterisk follows results filed as active. Only some compounds are listed: those with a hit (about 1.2% of all), similar ones and a draw of the others.

How did COc1ccc(S(=O)(=O)N2CCOCC2)cc1NC(=O)c1ccncc1 do in these assays?
UUG fidelity: -22; Arrestin-AP2 inh: 2; Tb MetRS inh: 0; DSG3 Ab inh: 90; Arr AP2 CP1: -6; GST-FITC bead: -2

What do the screens show for `CCOc1ncccc1C(=O)Nc1ccc(S(=O)(=O)N2CCCC2)cc1`?
Rce1 inh: inactive; Arrestin-AP2 inh: 29; Tb MetRS inh: -1; DSG3 Ab inh: 91

How did CCOc1ncccc1C(=O)Nc1cccc(S(=O)(=O)N2CCCCC2)c1 do in these assays?
UUG fidelity: -10; Arrestin-AP2 inh: 19; Tb MetRS inh: 0; DSG3 Ab inh: inconclusive; Arr AP2 CP1: -4; GST-FITC bead: -1

How did CCOc1ncccc1C(=O)OCC(=O)Nc1cc(S(=O)(=O)N2CCOCC2)ccc1C do in these assays?
Rce1 inh: inactive; Arrestin-AP2 inh: 51; Tb MetRS inh: 0; DSG3 Ab inh: 101

How did CCOc1ncccc1C(=O)Nc1cc(S(=O)(=O)N2CCOCC2)ccc1OCC(F)(F)F do in these assays?
UUG fidelity: -20; Arrestin-AP2 inh: 29; Tb MetRS inh: 0; DSG3 Ab inh: 86; Arr AP2 CP1: 1; GST-FITC bead: 9

What do the screens show for `CCOc1ncccc1C(=O)Nc1cc(S(=O)(=O)N2CCCCC2)ccc1C`?
UUG fidelity: -10; Arrestin-AP2 inh: 4; Tb MetRS inh: 0; DSG3 Ab inh: 94; Arr AP2 CP1: 7; GST-FITC bead: 6

How did O=C(C1CCCC1)N1C[C@@H]2[C@H](c3ccccc31)[C@@H](CO)N2C(=O)c1cccnc1 do in these assays?
UUG fidelity: 48

Results for CCOc1ccc(S(=O)(=O)N2CCN(CC)CC2)cc1NC(=O)c1ccccc1F ?
Rce1 inh: inactive; UUG fidelity: -4; Arrestin-AP2 inh: 1; Tb MetRS inh: 0; DSG3 Ab inh: 110; Arr AP2 CP1: 6; GST-FITC bead: 2

Results for O=C(Nc1cc(S(=O)(=O)N2CCOCC2)ccc1N1CCCC1)c1cc(=O)[nH]c2ccccc12 ?
Rce1 inh: inactive; UUG fidelity: 5; Arrestin-AP2 inh: -1; Tb MetRS inh: 0; DSG3 Ab inh: 90

How did Cc1ccc(S(=O)(=O)N2CCCCC2)cc1NC(=O)c1cc(=O)[nH]c2ccccc12 do in these assays?
UUG fidelity: -9; Arrestin-AP2 inh: 67*; Tb MetRS inh: 0; Arr AP2 CP1: 3; GST-FITC bead: -3

How did O=C(C[C@@H]1C[C@H]2c3cc(NC(=O)NC4CCCC4)ccc3O[C@H]2[C@H](CO)O1)NCc1ccc(Cl)cc1 do in these assays?
UUG fidelity: 48

Results for C[C@H](CO)N1C[C@H](C)[C@H](CN(C)C(=O)NC2CCCCC2)Oc2c(NS(=O)(=O)c3ccc(F)cc3)cccc2C1=O ?
UUG fidelity: 5

What do the screens show for `O=C(c1ccc(-c2ccc([N+](=O)[O-])cc2)o1)N1CCN(S(=O)(=O)c2cccs2)CC1`?
UUG fidelity: -13; Arrestin-AP2 inh: 65*; Tb MetRS inh: 0; DSG3 Ab inh: 97; Arr AP2 CP1: 3; GST-FITC bead: -3

How did O=C(c1ccc(-c2ccc(Cl)cc2)o1)N1CCN(S(=O)(=O)c2cccs2)CC1 do in these assays?
UUG fidelity: -21; Arrestin-AP2 inh: 2; Tb MetRS inh: 0; DSG3 Ab inh: 101

How did O=C(CC(=O)c1ccccc1)Nc1ccccc1C(F)(F)F do in these assays?
Rce1 inh: inactive; UUG fidelity: 4; Arrestin-AP2 inh: 11; Tb MetRS inh: 0; DSG3 Ab inh: 104; Arr AP2 CP1: 13; GST-FITC bead: 3

Structural class, those above with two or more sulfur atoms
What do the screens show for `O=C(c1ccc(-c2ccc([N+](=O)[O-])cc2)o1)N1CCN(S(=O)(=O)c2cccs2)CC1`?
UUG fidelity: -13; Arrestin-AP2 inh: 65*; Tb MetRS inh: 0; DSG3 Ab inh: 97; Arr AP2 CP1: 3; GST-FITC bead: -3

How did O=C(c1ccc(-c2ccc(Cl)cc2)o1)N1CCN(S(=O)(=O)c2cccs2)CC1 do in these assays?
UUG fidelity: -21; Arrestin-AP2 inh: 2; Tb MetRS inh: 0; DSG3 Ab inh: 101

Bioassay records from PubChem BioAssay.
